How the values were obtained:
Type in all cases: nucleic-acid assay
[1] = test system: Nucleic Acid; assay: Binding affinity to CGU ACA GUG RNA sequence assessed as change in melting temperature by thermal denaturation assay
[2] = test system: Nucleic Acid; assay: Binding affinity to CGT AGA GTG DNA sequence assessed as melting temperature by thermal denaturation assay
[3] = test system: Nucleic Acid; assay: Binding affinity to CGT ACA GTG DNA sequence assessed as change in melting temperature by thermal denaturation assay
[4] = test system: Nucleic Acid; assay: Binding affinity to CGT AAA GTG DNA sequence assessed as change in melting temperature by thermal denaturation assay
[5] = test system: Nucleic Acid; assay: Binding affinity to CGT ATA GTG DNA sequence assessed as change in melting temperature by thermal denaturation assay
[6] = test system: Nucleic Acid; assay: Binding affinity to CGU AGA GUG RNA sequence assessed as change in melting temperature by thermal denaturation assay
[7] = test system: Nucleic Acid; assay: Binding affinity to CGU AAA GUG RNA sequence assessed as change in melting temperature by thermal denaturation assay
[8] = test system: Nucleic Acid; assay: Binding affinity to CGU AUA GUG RNA sequence assessed as change in melting temperature by thermal denaturation assay
[9] = test system: Nucleic Acid; assay: Binding affinity to CGU AGA GUG RNA sequence assessed as melting temperature by thermal denaturation assay
[10] = test system: Nucleic Acid; assay: Binding affinity to CGT AGA GTG DNA sequence assessed as change in melting temperature by thermal denaturation assay
[11] = test system: Nucleic Acid; assay: Binding affinity to AAA TAT ATA GTG C DNA sequence assessed as melting temperature by thermal denaturation assay
[12] = test system: Nucleic Acid; assay: Binding affinity to AAA UAU AUA GUG C RNA sequence assessed as melting temperature by thermal denaturation assay
[13] = test system: Nucleic Acid; assay: Binding affinity to AAA UAU AUA GUG C RNA sequence assessed as change in melting temperature by thermal denaturation assay
[14] = test system: Nucleic Acid; assay: Binding affinity to AAA TAT ATA GTG C DNA sequence assessed as change in melting temperature by thermal denaturation assay
[15] = test system: Nucleic Acid; assay: Binding affinity to AAA UAU AUA GUG C RNA sequence by fluorescence emission spectrum analysis
[16] = test system: Nucleic Acid; assay: Binding affinity to AAA TAT ATA GTG DNA sequence by fluorescence emission spectrum analysis

Structure (SMILES): Cc1cn([C@@H]2O[C@@]3(COP(C)(=O)O[C@H]4C[C@H](n5cnc6c(N)ncnc65)O[C@@H]4COP(C)(=O)O[C@H]4C[C@H](n5cnc6c(=O)[nH]c(N)nc65)O[C@@H]4COP(=O)(O)O[C@H]4[C@H]5OC[C@]4(COP(C)(=O)O[C@H]4C[C@H](n6cnc7c(=O)[nH]c(N)nc76)O[C@@H]4CO)O[C@H]5n4cc(C)c(=O)[nH]c4=O)CO[C@@H]2[C@@H]3OP(=O)(O)OC[C@H]2O[C@@H](n3cnc4c(N)ncnc43)C[C@@H]2OP(C)(=O)OC[C@@]23CO[C@@H]([C@H](n4cc(C)c(=O)[nH]c4=O)O2)[C@@H]3OP(=O)(O)OC[C@H]2O[C@@H](n3cnc4c(=O)[nH]c(N)nc43)C[C@@H]2OP(C)(=O)OC[C@H]2O[C@@H](n3ccc(N)nc3=O)C[C@@H]2O)c(=O)[nH]c1=O (some centres not stated)
- ΔTm [1]: < -30.5 °C
- Tm [2]: 39.5 °C
- ΔTm [3]: < -29.5 °C
- ΔTm [4]: < -29.5 °C
- ΔTm [5]: < -29.5 °C
- ΔTm [6]: 4 °C
- ΔTm [7]: -27.5 °C
- ΔTm [8]: < -30.5 °C
- Tm [9]: 40.5 °C
- ΔTm [10]: 5 °C

Structure (SMILES): Cc1cn([C@@H]2O[C@@]3(COP(C)(=O)O[C@H]4C[C@H](n5cnc6c(N)ncnc65)O[C@@H]4COP(=O)(O)O[C@H]4[C@H]5OC[C@]4(COP(=O)(O)O[C@H]4C[C@H](n6cnc7c(N)ncnc76)O[C@@H]4COP(C)(=O)O[C@H]4C[C@H](n6cnc7c(=O)[nH]c(N)nc76)O[C@@H]4COP(=O)(O)O[C@H]4[C@H]6OC[C@]4(COP(=O)(O)O[C@H]4C[C@H](n7cnc8c(=O)[nH]c(N)nc87)O[C@@H]4CO)O[C@H]6n4cc(C)c(=O)[nH]c4=O)O[C@H]5n4cc(C)c(=O)[nH]c4=O)CO[C@@H]2[C@@H]3OP(=O)(O)OC[C@H]2O[C@@H](n3cnc4c(=O)[nH]c(N)nc43)C[C@@H]2OP(=O)(O)OC[C@H]2O[C@@H](n3ccc(N)nc3=O)C[C@@H]2O)c(=O)[nH]c1=O (some centres not stated)
- Tm [11]: 33.5 °C
- Tm [12]: 32.5 °C

Structure (SMILES): Cc1cn([C@H]2C[C@H](OP(=O)(O)OC[C@H]3O[C@@H](n4cnc5c(=O)[nH]c(N)nc54)C[C@@H]3OP(=O)(O)OC[C@H]3O[C@@H](n4ccc(N)nc4=O)C[C@@H]3O)[C@@H](COP(C)(=O)O[C@H]3C[C@H](n4cnc5c(N)ncnc54)O[C@@H]3COP(=O)(O)O[C@H]3C[C@H](n4cc(C)c(=O)[nH]c4=O)O[C@@H]3COP(=O)(O)O[C@H]3C[C@H](n4cnc5c(N)ncnc54)O[C@@H]3COP(C)(=O)O[C@H]3C[C@H](n4cnc5c(=O)[nH]c(N)nc54)O[C@@H]3COP(=O)(O)O[C@H]3C[C@H](n4cc(C)c(=O)[nH]c4=O)O[C@@H]3COP(=O)(O)O[C@H]3C[C@H](n4cnc5c(=O)[nH]c(N)nc54)O[C@@H]3CO)O2)c(=O)[nH]c1=O (some centres not stated)
- ΔTm [13]: 6 °C
- ΔTm [14]: 4 °C
- fold change (FC) [15]: 3.5
- fold change (FC) [16]: 3.5
- Tm [11]: 41.5 °C
- Tm [12]: 44.5 °C

Structure (SMILES): Cc1cn([C@H]2C[C@H](OP(=O)(O)OC[C@H]3O[C@@H](n4cnc5c(N)ncnc54)C[C@@H]3OP(C)(=O)OC[C@H]3O[C@@H](n4cc(C)c(=O)[nH]c4=O)C[C@@H]3OP(=O)(O)OC[C@H]3O[C@@H](n4cnc5c(=O)[nH]c(N)nc54)C[C@@H]3OP(C)(=O)OC[C@H]3O[C@@H](n4ccc(N)nc4=O)C[C@@H]3O)[C@@H](COP(C)(=O)O[C@H]3C[C@H](n4cnc5c(N)ncnc54)O[C@@H]3COP(C)(=O)O[C@H]3C[C@H](n4cnc5c(=O)[nH]c(N)nc54)O[C@@H]3COP(=O)(O)O[C@H]3C[C@H](n4cc(C)c(=O)[nH]c4=O)O[C@@H]3COP(C)(=O)O[C@H]3C[C@H](n4cnc5c(=O)[nH]c(N)nc54)O[C@@H]3CO)O2)c(=O)[nH]c1=O (some centres not stated)
- Tm [2]: 40.5 °C
- ΔTm [6]: 10 °C
- Tm [9]: 46.5 °C
- ΔTm [10]: 6 °C
